# AlphaSeq binding of Ab-91 heavy chain variants to a spike HR2 peptide

The measurements come from Engelhart et al. 2022 (doi:10.1038/s41597-022-01779-4) through the FLAb antibody collection.

Target: peptide PDVDLGDISGINAS, taken from heptad repeat 2 (HR2) of SARS-CoV-2 spike.

Parent scFv Ab-91: VL joined to VH by the linker GGGGSGGGGSGGGGS. Changes lie in the heavy chain CDRs alone.
VL: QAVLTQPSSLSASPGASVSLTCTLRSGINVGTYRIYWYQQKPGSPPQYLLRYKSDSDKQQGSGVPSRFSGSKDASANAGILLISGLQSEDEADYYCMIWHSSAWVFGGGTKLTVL
VH: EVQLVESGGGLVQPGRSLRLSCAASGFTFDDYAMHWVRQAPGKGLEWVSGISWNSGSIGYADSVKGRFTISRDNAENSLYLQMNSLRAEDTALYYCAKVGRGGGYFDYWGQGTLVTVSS

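Variants in AAYL51 differ from the parent at up to three CDR positions; double and triple changes were sampled at random. AlphaSeq pools MATa yeast showing the antibodies with MATalpha yeast showing the peptide. Mating (16 h, 30 °C) was followed by selection of diploids and sequencing of their barcodes. Each replicate has its own calibration line, from reference interactions of the BCL2 family. There are three technical replicates.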

The parent's heavy chain CDRs are GFTFDDYAMH, GISWNSGSIGYADSVK, VGRGGGYFDY; each variant's own CDRs replace them letter for letter. Values are log10 of the apparent Kd in nM; lower means stronger binding. Averages over replicates are reported, and they cover detected replicates only. An entry "n.d." has no value in the source: the pair was not observed among the diploids in that replicate. This suggests poor binding but is not conclusive. As a blank, each scFv also met three strains without target: over library AAYL51, 21% of these pairings were detected, typically at 4.54 and seldom below 3.26. Also given: how often the same scFv was detected with the empty control strains, with their mean in brackets. For reference, the parent read 1.86 as the reference entry and 0.88 as a member of this library.

CDR-H1,CDR-H2,CDR-H3,"log10 Kd, replicates",mean log10 Kd (nM),control signals
GFTFDDYAMH,GISWNSGSIGYADSSK,TGRGGGYFDN,n.d. / 5.40 / n.d.,5.40,1 of 9 (4.83)
GFTFDKYANH,GISWNSGSIKYADSVK,VGRGGGYFDY,n.d. / n.d. / n.d.,n.d.,1 of 9 (4.81)
GFTFDDYAMH,GRSTDSGSIGYADSVK,VGRGGGYFDY,n.d. / n.d. / n.d.,n.d.,7 of 9 (4.71)
GFTFDDYAMH,TISWNSGSIGYADSVK,VGMGGRYFDY,4.73 / n.d. / n.d.,4.73,0 of 9
GFTFCDYAMH,GISMNSGSIGYADSVK,VGRGGGQFDY,0.91 / 0.90 / 0.36,0.72,5 of 9 (4.77)
GFTFDDYAEH,GISWNSGSIGYADSVK,VGGGGGYFPY,n.d. / n.d. / n.d.,n.d.,0 of 9
GQTFDDYAMH,GISWNSGSKGYADSVK,VGRGGGYFDY,2.96 / n.d. / 4.16,3.56,4 of 9 (4.28)
GFTVDDYAMH,GLSWNSGSIGYADSVK,VGRGQGYFDY,n.d. / n.d. / n.d.,n.d.,0 of 9
GFTFDDYAMH,GISWNSGSIGYADSVK,VRRGGGYFDY,2.14 / 2.14 / 1.98,2.09,2 of 9 (5.55)
GFTFDDYPMH,GISLNSGSIGYAHSVK,VGRGGGYFDY,4.19 / n.d. / n.d.,4.19,5 of 9 (4.74)
GFTFDDYAMG,GISWNSGSIGYADSPK,VGRGGGYQDY,n.d. / n.d. / n.d.,n.d.,1 of 9 (4.16)
GFTFDDYAMH,GISWNSGSIGYADSVK,TTRGGGYFDQ,n.d. / n.d. / n.d.,n.d.,0 of 9
GFTFDDYAMH,GISLNSGSIGYADSVK,VWRGAGYFDY,n.d. / 4.66 / n.d.,4.66,3 of 9 (3.37)
GFTFDDYAMH,GIWWNSGSIGYADSVM,VGKGGGYFDY,n.d. / n.d. / n.d.,n.d.,0 of 9
WFTFDDYAMV,GISWNSGSIGYADSPK,VGRGGGYFDY,3.36 / n.d. / n.d.,3.36,1 of 9 (4.00)
RFTFDDYAMH,GISRNSGSIGYADSVK,VGRGGGYFDY,n.d. / n.d. / n.d.,n.d.,0 of 9
GFTFDDYAMH,GISWNSGSIGYADSVK,VGRGLWYFDY,n.d. / n.d. / n.d.,n.d.,0 of 9
GFTFDDYAEH,GISWNSGSIGYADSVK,VGRYGVYFDY,n.d. / n.d. / n.d.,n.d.,0 of 9
GFTFDDYAMH,GISWNSGSIGYADSVK,AQRGGGYFNY,n.d. / n.d. / 4.83,4.83,2 of 9 (5.00)
GFTFDDYAMH,GISWNSGSIGWADSVK,VGRQPGYFDY,5.71 / 2.71 / n.d.,4.21,1 of 9 (3.88)
GFTFDDYAMH,GMSWNSGSFGYADSVK,VGRGGGYFDY,n.d. / n.d. / n.d.,n.d.,0 of 9
GVTFDDYAMH,GISWNSGSIGYVDSVK,FGRGGGYFDY,4.30 / n.d. / n.d.,4.30,2 of 9 (5.32)
GWTFDDYAMH,GWSWSSGSIGYADSVK,VGRGGGYFDY,3.55 / n.d. / n.d.,3.55,2 of 9 (4.65)
GFTFDDDAMH,GISWNSGSIGYADSVK,VGRGGWYFDY,n.d. / n.d. / n.d.,n.d.,0 of 9
GFTFDDGRMH,GISWNSGSIGYADIVK,VGRGGGYFDY,n.d. / n.d. / n.d.,n.d.,0 of 9
GFTFDDYAMF,GISWNSNSIGYADSVK,VGRGGGYFDY,4.88 / n.d. / 5.09,4.98,6 of 9 (5.20)
GPTFDDYAMH,GISWNSGSFGYADSYK,VGRGGGYFDY,n.d. / n.d. / n.d.,n.d.,0 of 9
GFTFQDYAMH,GISWNSGSIGYAESFK,VGRGGGYFDY,0.99 / 0.98 / 0.19,0.72,2 of 9 (5.48)
GGTFDDYAMH,PISWNRGSIGYADSVK,VGRGGGYFDY,n.d. / n.d. / n.d.,n.d.,0 of 9
GMTVDDYAMH,GISWNSGSIGYADSVK,VGRGGGWFDY,n.d. / n.d. / n.d.,n.d.,1 of 9 (5.16)
GFTFDDYAMH,WISWNSGSICYADSVK,VGRGGGYPDY,3.88 / n.d. / n.d.,3.88,3 of 9 (4.91)
GFTFCDYAMH,GISWNSGSIGYADSVK,VGRTGGYFDY,n.d. / 5.63 / 3.81,4.72,4 of 9 (3.76)
GFTFDRYAMH,GISWNSGSIGYASSVK,VGREGGYFDY,n.d. / n.d. / n.d.,n.d.,2 of 9 (4.05)
GFTFDDYAMH,GISWNSGVIPYADSVK,VGRPGGYFDY,6.06 / n.d. / 4.52,5.29,3 of 9 (5.31)
GFTFDDTAMH,GISWLSGSPGYADSVK,VGRGGGYFDY,4.00 / 4.53 / n.d.,4.26,7 of 9 (4.43)
GFTFWDYAMH,GISWNRGSIGYADSVK,VGRGGGYFYY,5.42 / n.d. / 4.72,5.07,3 of 9 (3.71)
GFIFDDYAMH,GISWNSGSIGYADSVK,VGRGGGYFQY,n.d. / n.d. / n.d.,n.d.,0 of 9
GFHFDDYAMH,GISWNSGSIGYADSVK,VGRAGGYFDN,n.d. / n.d. / n.d.,n.d.,0 of 9
GFTFDDYAMG,GIYWNSGSIGYADSVK,VGRGGPYFDY,5.41 / n.d. / n.d.,5.41,0 of 9
GFTFDDYAMH,GISFNSGMIGYAPSVK,VGRGGGYFDY,1.50 / 1.94 / 1.32,1.59,1 of 9 (4.37)
GFTFYDYAMH,GIGWNSKSIGYADSVK,VGRGGGYFDY,3.34 / 3.01 / 2.50,2.95,2 of 9 (3.34)
GFTFDDYAMH,GISWNYGSIEYADSVL,VGRGGGYFDY,n.d. / n.d. / n.d.,n.d.,0 of 9
GFTRDDYAMH,GISWNSGSWGYADSVK,VGPGGGYFDY,n.d. / n.d. / n.d.,n.d.,0 of 9
GFTFDDYAMH,GISQNSGSIGYADAVK,VFRGGGYFDY,0.98 / 0.98 / 0.60,0.86,2 of 9 (5.66)
VFTFDDYAMH,GISWNSWSIGYADSVK,VGSGGGYFDY,5.49 / n.d. / 4.67,5.08,7 of 9 (4.95)
AFTFDDYYMH,GISWNSGSIGYADSAK,VGRGGGYFDY,5.76 / 5.69 / n.d.,5.73,2 of 9 (3.77)
WFTFDDYAMH,GISWNSSSIGYADSVK,VGREGGYFDY,3.39 / n.d. / n.d.,3.39,5 of 9 (4.56)

Top 3 of the variants detected in all replicates, tightest first:

CDR-H1,CDR-H2,CDR-H3,"log10 Kd, replicates",mean log10 Kd (nM),control signals
GFTFQDYAMH,GISWNSGSIGYAESFK,VGRGGGYFDY,0.99 / 0.98 / 0.19,0.72,2 of 9 (5.48)
GFTFCDYAMH,GISMNSGSIGYADSVK,VGRGGGQFDY,0.91 / 0.90 / 0.36,0.72,5 of 9 (4.77)
GFTFDDYAMH,GISQNSGSIGYADAVK,VFRGGGYFDY,0.98 / 0.98 / 0.60,0.86,2 of 9 (5.66)